Experimental data as given in patent US9987369B2, “Vitamin functionalized gel-forming block copolymers for biomedical applications” (INTERNATIONAL BUSINESS MACHINES CORPORATION, priority 2016, dated 2018).

Key:
[1] = system: HER2/neu-overexpressing human breast cancer BT474 cells; assay: cytotoxicity of herceptin delivered by hydrogels (MTT); assay type: cell-based; settings: 120 hours treatment
BT474 tumor [2] = assay: in vivo anti-tumor efficacy; set-up: species or system mice; settings: 4×10 mg/kg weekly
Method: Female BALB/c nude mice, weighing 18 g to 22 g were injected subcutaneously with 200 microliters of a cell suspension (1:1 with Matrigel) (BD Biosciences, U.S.A.) containing 5×10^6 BT474 cells. Three weeks after inoculation (when the tumor volume was 100 mm^3 to 120 mm^3), the tumor-bearing mice were randomly divided into several groups (7 to 10 mice per group).
All mice were injected only once on the first day of treatment (Day 0).
The tumor size was measured by calipers in two orthogonal diameters and the volume was calculated as L×W2/2, where L and W are the major and minor diameters respectively. At the end of the treatment, a two-tailed Student's t test was used to statistically evaluate the difference in tumor volume and P<0.05 was considered to indicate a statistically significant difference. In addition, the toxicities of the different formulations were evaluated by monitoring the change in mouse body weight over the course of treatment.

BT474 tumor [3] = assay: histological analysis of tumors (TUNEL, H&E); assay type: in vivo, mice; settings: 28 days after one injection, 30 mg/kg
Source text: For histological examination, the samples were fixed in 4% neutral buffered formalin and then stained with hematoxylin/eosin (H&E) using standard techniques. Apoptotic cells of tumor samples were identified using Terminal Transferase dUTP Nick-End Labeling (TUNEL) assay. The slides were counterstained with hematoxylin to visualize nuclei and examined using a stereomicroscope (Nikon, U.S.A.).

herceptin solution: herceptin dissolved using sterile HPLC grade water
IC50 of herceptin [1]: < 5 mg/L
tumor shrinkage by the end of the treatment (BT474 tumor [2]; solution intravenous): 32%
tumor size over the course of treatment (BT474 tumor [2]; solution subcutaneous, ~4 cm away from tumor): remained similar in size

herceptin: recombinant humanized mAb that can selectively bind to HER2 proteins
TUNEL staining of tumor cells (BT474 tumor [3]): mostly apoptotic
